Results from patent US9127044B2, “Cyclic depsipeptides” (NOVARTIS AG, priority 2007, dated 2015).

Chains of the proteins cited; added tags and fusions are not shown. Residues count along the entry.
UniProt P49862, 30-253 limits assumed: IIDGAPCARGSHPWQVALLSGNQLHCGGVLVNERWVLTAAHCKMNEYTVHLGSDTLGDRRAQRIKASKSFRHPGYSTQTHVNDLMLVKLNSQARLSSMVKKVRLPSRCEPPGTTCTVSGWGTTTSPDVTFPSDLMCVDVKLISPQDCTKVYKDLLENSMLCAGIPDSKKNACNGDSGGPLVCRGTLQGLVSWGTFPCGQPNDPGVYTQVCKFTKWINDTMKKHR
UniProt P08246, 30-267 limits assumed: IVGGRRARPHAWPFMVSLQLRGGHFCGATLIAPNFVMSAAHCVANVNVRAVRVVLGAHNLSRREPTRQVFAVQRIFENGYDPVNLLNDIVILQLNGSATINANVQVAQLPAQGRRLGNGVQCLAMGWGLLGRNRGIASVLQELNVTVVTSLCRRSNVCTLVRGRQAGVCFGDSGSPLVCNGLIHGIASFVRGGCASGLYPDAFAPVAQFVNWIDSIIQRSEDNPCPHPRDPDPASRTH

Legend:
human kallikrein 7 = human kallikrein 7 (Homo sapiens, UniProt P49862); assay: Kallikrein-7 inhibitory activity in vitro (fluorescence-quenched substrate); format: biochemical; conditions: read-out: hKallikrein7 IC 50; Table 11
Crl:NMRI mice = assay: Anti-inflammatory activity in murine model of allergic contact dermatitis (ACD), oxazolone
Method: Method: Crl:NMRI mice were sensitized on the shaved abdomen with 50 μl of 2% oxazolone on day 1 and challenged with 10 μl oxazolone on the inner surface of the right ear on day 8. The unchallenged left ears served as normal controls and dermatitis was evaluated from the difference in auricular weight (taken as a measure of inflammatory swelling) on day 9. The animals were treated topically with 10 μl test compound or the solvent only 30 min after the challenge. The efficacy of the treatment was calculated as the percentage inhibition of inflammatory auricular swelling relative to animals treated with the vehicle alone.

[1] = biological target: Human neutrophil elastase (Homo sapiens, UniProt P08246); assay: HNE inhibitory activity in vitro (fluorescence-quenched substrate); format: biochemical; conditions: read-out: human neutrophile elastase IC 50; Table 11
Method: Human neutrophil elastase (cat. no. SE563) is purchased from Elastin Products Company, Inc. (EPC, Owensville, USA). The dry powder (purity >95% stated by the supplier) was dissolved in 20 mM sodium acetate buffer, pH 5.0, 50% (v/v) glycerol, and frozen at −80° C. in aliquots.
The fluorescence-quenched substrate (DABCYL-Ser-Glu-Val^Asn-Leu-Asp-Ala-Glu-Phe-EDANS, where ^ indicates the scissile bond, identified by MS analysis) was purchased from Bachem AG (Bubendorf, Switzerland), and kept as a 5 mM stock solution in DMSO at −20° C. All other chemicals were of analytical grade.
Enzymatic reactions were conducted in 100 mM Tris/HCl buffer at pH 7.5, containing 500 mM NaCl, and 0.05% (w/v) CHAPS.
All protein and peptide containing solutions are handled in siliconized tubes (Life Systems Design, Merenschwand, Switzerland).
The compound solutions as well as the enzyme and the substrate solutions are transferred to the 384-well plates (black Cliniplate; cat. no. 95040020 Labsystems Oy, Finland) by means of a CyBi-Well 96-channel pipettor (CyBio AG, Jena, Germany).
For fluorescence intensity (FI) measurements an Ultra Evolution reader (TECAN, Maennedorf, Switzerland) is used. The instrument is equipped with a combination of a 350 nm (20 nm bandwidth) and a 500 nm (25 nm bandwidth) bandpass filter for fluorescence excitation and emission acquisition, respectively. […]

[2] = Table 14, concentration of test compound 10 mM
[3] = Table 14, concentration of test compound 30 mM

IC50 (human kallikrein 7) [nM] | IC50 [1] [nM] | SMILES | % Inhibition of inflammatory swelling (Crl:NMRI mice; [2]) [%] | % Inhibition of inflammatory swelling (Crl:NMRI mice; [3]) [%]
3.75 | 2.5 | CCC(C)[C@@H]1NC(=O)[C@H](Cc2ccc(O)cc2)N(C)C(=O)[C@H](C(C)CC)N2C(=O)C(CC[C@@H]2OCc2ccccc2)NC(=O)[C@H](CC(C)C)NC(=O)[C@@H](NC(=O)[C@H](CCC#N)NC(=O)C(C)C)[C@@H](C)OC1=O (some centres unmarked) | 39 | 38
5 | 3 | CCO[C@H]1CCC2NC(=O)[C@H](CC(C)C)NC(=O)[C@@H](NC(=O)[C@H](CCC#N)NC(=O)C(C)C)[C@@H](C)OC(=O)[C@H](C(C)CC)NC(=O)[C@H](Cc3ccc(O)cc3)N(C)C(=O)[C@H](C(C)CC)N1C2=O (some centres unmarked) | 48 | 40
